Data taken from patent US6936585B2, “Corticotropin releasing factor 2 receptor agonists” (priority 2002, dated 2005).

Key:
CRF2R = target: T1, CRF2R (Homo sapiens, UniProt Q13324); experiment: CRF2R agonist activation (EC50 / Emax), called comparative CRF binding; type: cell-based; settings: for Emax: read-out: CRF2R Emax
T1 sequence (Q13324 1-411): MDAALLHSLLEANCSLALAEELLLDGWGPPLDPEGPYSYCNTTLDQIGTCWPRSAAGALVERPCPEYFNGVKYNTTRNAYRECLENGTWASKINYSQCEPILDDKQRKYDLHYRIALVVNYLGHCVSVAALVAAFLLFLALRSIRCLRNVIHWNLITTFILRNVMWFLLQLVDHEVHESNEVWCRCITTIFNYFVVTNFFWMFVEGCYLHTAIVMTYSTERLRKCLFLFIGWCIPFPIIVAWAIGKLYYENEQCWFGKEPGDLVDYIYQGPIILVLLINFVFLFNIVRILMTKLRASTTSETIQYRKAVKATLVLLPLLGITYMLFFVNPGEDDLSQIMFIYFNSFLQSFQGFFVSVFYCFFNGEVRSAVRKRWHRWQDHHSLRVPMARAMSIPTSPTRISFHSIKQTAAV
Summary of the method: (§1)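 CRFR-expressing cells + peptide vs vehicle; read-out cAMP (lysate assay) or CRE-linked reporter expression (luciferase, CAT, fluorescent protein, alkaline phosphatase, etc.). Signal compared against vehicle-treated cells.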

CRF1R = target: T2, CRF1R (Homo sapiens, UniProt P34998); experiment: CRF1R agonist activation (EC50 / Emax), called comparative CRF binding; type: cell-based; settings: for Emax: read-out: CRF1R Emax; for EC50: CRF1R EC50
T2 sequence (P34998 24-415): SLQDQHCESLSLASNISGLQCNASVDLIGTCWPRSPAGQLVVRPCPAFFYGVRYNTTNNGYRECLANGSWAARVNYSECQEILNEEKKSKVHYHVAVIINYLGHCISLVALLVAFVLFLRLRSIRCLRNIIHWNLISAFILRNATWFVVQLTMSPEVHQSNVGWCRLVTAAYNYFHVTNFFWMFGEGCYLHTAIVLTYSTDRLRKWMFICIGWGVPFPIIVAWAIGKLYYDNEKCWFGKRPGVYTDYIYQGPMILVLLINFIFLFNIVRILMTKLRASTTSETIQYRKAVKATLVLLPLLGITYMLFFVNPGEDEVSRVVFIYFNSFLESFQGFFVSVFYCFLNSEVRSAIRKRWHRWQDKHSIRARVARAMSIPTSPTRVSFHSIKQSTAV
Summary of the method: as §1

Row | Structure (SMILES) | Emax (CRF2R) | Emax (CRF1R) | EC50 (CRF2R) | EC50 (CRF1R)
1 | CC[C@H](C)[C@H](NC(=O)[C@H](CCC(=O)O)NC(=O)[C@@H](NC(=O)[C@H](CCSC)NC(=O)[C@H](CCCCN)NC(=O)[C@H](CCCNC(=N)N)NC(=O)[C@H](CC(C)C)NC(=O)[C@H](CC(C)C)NC(=O)[C@H](Cc1c[nH]cn1)NC(=O)[C@H](Cc1ccc(O)cc1)NC(=O)[C@@H]1CCCN1C(=O)[C@H](CC(C)C)NC(=O)[C@H](CC(=O)O)NC(=O)[C@@H](NC(=O)[C@H](CO)NC(=O)[C@@H](NC(=O)[C@@H]1CCCN1C(=O)[C@@H]1CCCN1C(=O)CNC(=O)[C@@H]1CCC(=O)N1)[C@@H](C)CC)[C@@H](C)CC)[C@@H](C)CC)C(=O)N[C@@H](CCC(=O)O)C(=O)N[C@@H](CCCCN)C(=O)N[C@@H](CCC(N)=O)C(=O)N[C@@H](CCC(=O)O)C(=O)N[C@@H](CCCCN)C(=O)N[C@@H](CCC(=O)O)C(=O)N[C@@H](CCCCN)C(=O)N[C@@H](CCC(N)=O)C(=O)N[C@@H](CCC(N)=O)C(=O)N[C@@H](C)C(=O)N[C@@H](C)C(=O)N[C@@H](CC(N)=O)C(=O)N[C@@H](CC(N)=O)C(=O)N[C@@H](C)C(=O)N[C@@H](CC(C)C)C(=O)N[C@@H](CC(C)C)C(=O)N[C@@H](CC(C)C)C(=O)N[C@@H](C)C(=O)N[C@H](C(N)=O)[C@@H](C)O [compound 315] | 81.7% | 100% |  | 
2 | CC[C@H](C)[C@H](NC(=O)[C@H](CCCNC(=N)N)NC(=O)[C@H](C)NC(=O)[C@H](CC(N)=O)NC(=O)[C@@H](NC(=O)[C@@H](NC(=O)[C@H](C)NC(=O)[C@H](CCC(N)=O)NC(=O)[C@H](CCC(=O)O)NC(=O)[C@H](CCCNC(=N)N)NC(=O)[C@H](C)NC(=O)[C@H](C)NC(=O)[C@H](CCCNC(=N)N)NC(=O)[C@H](C)NC(=O)[C@H](CCCNC(=N)N)NC(=O)[C@H](C)NC(=O)[C@H](CCC(N)=O)NC(=O)[C@H](CCC(=O)O)NC(=O)[C@@H](NC(=O)[C@H](CCSC)NC(=O)[C@H](CCCCN)NC(=O)[C@H](CCCNC(=N)N)NC(=O)[C@H](CC(C)C)NC(=O)[C@H](CC(C)C)NC(=O)[C@H](CCC(=O)O)NC(=O)[C@H](CC(C)C)NC(=O)[C@H](CO)NC(=O)[C@H](CC(C)C)NC(=O)[C@H](CC(=O)O)NC(=O)[C@@H](NC(=O)[C@H](CO)NC(=O)[C@@H](NC(=O)[C@@H]1CCCN1C(=O)[C@@H]1CCCN1C(=O)CNC(=O)[C@@H]1CCC(=O)N1)[C@@H](C)CC)[C@@H](C)CC)[C@@H](C)CC)[C@@H](C)O)[C@@H](C)O)C(=O)N[C@@H](CC(C)C)C(=O)N[C@@H](C)C(=O)N[C@@H](CCCNC(=N)N)C(=O)N[C@H](C(N)=O)C(C)C [compound 156] | 79% | 6% |  | 
3 | CC[C@H](C)[C@H](NC(=O)[C@@H](NC(=O)[C@H](CC(=O)O)NC(=O)[C@H](CC(C)C)NC(=O)[C@H](CC(C)C)NC(=O)[C@H](CC(C)C)NC(=O)[C@H](C)NC(=O)[C@H](CC(N)=O)NC(=O)[C@H](CC(N)=O)NC(=O)[C@H](C)NC(=O)[C@H](C)NC(=O)[C@H](CCC(N)=O)NC(=O)[C@H](CCC(N)=O)NC(=O)[C@H](CCCCN)NC(=O)[C@H](CCC(=O)O)NC(=O)[C@H](CCCCN)NC(=O)[C@H](CCC(=O)O)NC(=O)[C@H](CCC(N)=O)NC(=O)[C@H](CCCCN)NC(=O)[C@H](CCC(=O)O)NC(=O)[C@@H](NC(=O)[C@H](CCC(=O)O)NC(=O)[C@@H](NC(=O)[C@H](CCSC)NC(=O)[C@H](CCCCN)NC(=O)[C@H](CCCNC(=N)N)NC(=O)[C@H](CC(C)C)NC(=O)[C@H](CC(C)C)NC(=O)[C@H](Cc1c[nH]cn1)NC(=O)[C@H](CC(C)C)NC(=O)[C@@H]1CCCN1C(=O)[C@H](CC(C)C)NC(=O)[C@H](CC(=O)O)NC(=O)[C@@H](NC(=O)[C@H](CO)NC(=O)[C@@H](NC(=O)[C@@H]1CCCN1C(=O)[C@@H]1CCCN1C(=O)CNC(=O)[C@@H]1CCC(=O)N1)[C@@H](C)CC)[C@@H](C)CC)[C@@H](C)CC)[C@@H](C)CC)[C@@H](C)O)C(N)=O [compound 240] | 100% | 80% | 22 nM | 915 nM
4 | CC[C@H](C)[C@H](NC(=O)[C@H](Cc1c[nH]cn1)NC(=O)[C@H](C)NC(=O)[C@H](CC(C)C)NC(=O)[C@H](CC(C)C)NC(=O)[C@H](Cc1c[nH]cn1)NC(=O)[C@H](C)NC(=O)[C@H](CC(N)=O)NC(=O)[C@H](CC(N)=O)NC(=O)[C@H](C)NC(=O)[C@H](C)NC(=O)[C@H](CCC(N)=O)NC(=O)[C@H](CCC(N)=O)NC(=O)[C@H](CCCCN)NC(=O)[C@H](CCC(=O)O)NC(=O)[C@H](CCCCN)NC(=O)[C@H](CCC(=O)O)NC(=O)[C@H](CCC(N)=O)NC(=O)[C@H](CCCCN)NC(=O)[C@H](CCC(=O)O)NC(=O)[C@@H](NC(=O)[C@H](CCC(=O)O)NC(=O)[C@@H](NC(=O)[C@@H](NC(=O)[C@H](CCCCN)NC(=O)[C@H](CCCNC(=N)N)NC(=O)[C@H](CC(C)C)NC(=O)[C@H](CC(C)C)NC(=O)[C@H](CCC(N)=O)NC(=O)[C@H](Cc1ccccc1)NC(=O)[C@@H]1CCCN1C(=O)[C@H](CC(C)C)NC(=O)[C@H](CC(=O)O)NC(=O)[C@@H](NC(=O)[C@H](CO)NC(=O)[C@@H](NC(=O)[C@@H]1CCCN1C(=O)[C@@H]1CCCN1C(=O)CNC(=O)[C@@H]1CCC(=O)N1)[C@@H](C)CC)[C@@H](C)CC)C(C)C)[C@@H](C)CC)[C@@H](C)CC)C(N)=O [compound 277] | 100% | 39.9% |  | 
5 | CC[C@H](C)[C@H](NC(=O)[C@@H](NC(=O)[C@H](C)NC(=O)[C@H](CC(C)C)NC(=O)[C@H](CC(C)C)NC(=O)[C@H](CC(C)C)NC(=O)[C@H](CCCNC(=N)N)NC(=O)[C@H](CC(N)=O)NC(=O)[C@H](CC(N)=O)NC(=O)[C@H](C)NC(=O)[C@H](C)NC(=O)[C@H](CCC(N)=O)NC(=O)[C@H](CCC(N)=O)NC(=O)[C@H](CCCCN)NC(=O)[C@H](CCC(=O)O)NC(=O)[C@H](CCCCN)NC(=O)[C@H](CCC(=O)O)NC(=O)[C@H](CCC(N)=O)NC(=O)[C@H](CCCCN)NC(=O)[C@H](CCC(=O)O)NC(=O)[C@@H](NC(=O)[C@H](CCC(=O)O)NC(=O)[C@@H](NC(=O)[C@H](CCSC)NC(=O)[C@H](CCCCN)NC(=O)[C@H](CCCNC(=N)N)NC(=O)[C@H](CC(C)C)NC(=O)[C@H](CC(C)C)NC(=O)[C@H](CCC(N)=O)NC(=O)[C@H](Cc1ccccc1)NC(=O)[C@@H]1CCCN1C(=O)[C@H](CC(C)C)NC(=O)[C@H](CC(=O)O)NC(=O)[C@@H](NC(=O)[C@H](CO)NC(=O)[C@@H](NC(=O)[C@@H]1CCCN1C(=O)[C@@H]1CCCN1C(=O)CNC(=O)[C@@H]1CCC(=O)N1)[C@@H](C)CC)[C@@H](C)CC)[C@@H](C)CC)[C@@H](C)CC)[C@@H](C)O)C(N)=O [compound 250] | 100% | 99% |  | 
6 | CC[C@H](C)[C@H](NC(=O)[C@@H](NC(=O)[C@H](CC(=O)O)NC(=O)[C@H](CC(C)C)NC(=O)[C@H](CC(C)C)NC(=O)[C@H](CC(C)C)NC(=O)[C@H](CCCNC(=N)N)NC(=O)[C@H](CC(N)=O)NC(=O)[C@H](CC(N)=O)NC(=O)[C@H](C)NC(=O)[C@H](C)NC(=O)[C@H](CCC(N)=O)NC(=O)[C@H](CCC(N)=O)NC(=O)[C@H](CCCCN)NC(=O)[C@H](CCC(=O)O)NC(=O)[C@H](CCCCN)NC(=O)[C@H](CCC(=O)O)NC(=O)[C@H](CCC(N)=O)NC(=O)[C@H](CCCCN)NC(=O)[C@H](CCC(=O)O)NC(=O)[C@@H](NC(=O)[C@H](CCC(=O)O)NC(=O)[C@@H](NC(=O)[C@H](CCSC)NC(=O)[C@H](CCCCN)NC(=O)[C@H](CCCNC(=N)N)NC(=O)[C@H](CC(C)C)NC(=O)[C@H](CC(C)C)NC(=O)[C@H](Cc1ccc(O)cc1)NC(=O)[C@@H](NC(=O)[C@@H]1CCCN1C(=O)[C@H](CC(C)C)NC(=O)[C@H](CC(=O)O)NC(=O)[C@@H](NC(=O)[C@H](CO)NC(=O)[C@@H](NC(=O)[C@@H]1CCCN1C(=O)[C@@H]1CCCN1C(=O)CNC(=O)[C@@H]1CCC(=O)N1)[C@@H](C)CC)[C@@H](C)CC)[C@@H](C)CC)[C@@H](C)CC)[C@@H](C)CC)[C@@H](C)O)C(N)=O [compound 79] | 100% | 8% |  | 
7 | CC[C@H](C)[C@H](NC(=O)[C@H](CCC(=O)O)NC(=O)[C@@H](NC(=O)[C@H](CCSC)NC(=O)[C@H](CCCCN)NC(=O)[C@H](CCCNC(=N)N)NC(=O)[C@H](CC(C)C)NC(=O)[C@H](CC(C)C)NC(=O)[C@H](CCC(N)=O)NC(=O)[C@H](Cc1ccccc1)NC(=O)[C@@H]1CCCN1C(=O)[C@H](CC(C)C)NC(=O)[C@H](CC(=O)O)NC(=O)[C@@H](NC(=O)[C@H](CO)NC(=O)[C@@H](NC(=O)[C@@H]1CCCN1C(=O)[C@@H]1CCCN1C(=O)CNC(=O)[C@@H]1CCC(=O)N1)[C@@H](C)CC)[C@@H](C)CC)[C@@H](C)CC)C(=O)N[C@@H](CCC(=O)O)C(=O)N[C@@H](CCCCN)C(=O)N[C@@H](CCC(N)=O)C(=O)N[C@@H](CCC(=O)O)C(=O)N[C@@H](CCCCN)C(=O)N[C@@H](CCC(=O)O)C(=O)N[C@@H](CCCCN)C(=O)N[C@@H](CCC(N)=O)C(=O)N[C@@H](CCC(N)=O)C(=O)N[C@@H](C)C(=O)N[C@H](C(=O)N[C@H](C(=O)N[C@@H](CC(N)=O)C(=O)N[C@@H](CCCNC(=N)N)C(=O)N[C@@H](CC(C)C)C(=O)N[C@@H](CC(C)C)C(=O)N[C@@H](CC(C)C)C(=O)N[C@@H](C)C(=O)N[C@@H](CCCNC(=N)N)C(=O)N[C@H](C(N)=O)C(C)C)[C@@H](C)O)[C@@H](C)O [compound 19] | 75% | 83% | 7.42 nM | 232 nM
